Test results: publication PMC7615677, “DNDI-6174, a preclinical candidate for visceral leishmaniasis that targets the cytochrome bc1 complex” (Science translational medicine, 2023)
Read-outs that look alike come from different tables or passages of the source.

The chains behind the UniProt entries cited, without tags or fusion partners.
UniProt P11712, whole entry: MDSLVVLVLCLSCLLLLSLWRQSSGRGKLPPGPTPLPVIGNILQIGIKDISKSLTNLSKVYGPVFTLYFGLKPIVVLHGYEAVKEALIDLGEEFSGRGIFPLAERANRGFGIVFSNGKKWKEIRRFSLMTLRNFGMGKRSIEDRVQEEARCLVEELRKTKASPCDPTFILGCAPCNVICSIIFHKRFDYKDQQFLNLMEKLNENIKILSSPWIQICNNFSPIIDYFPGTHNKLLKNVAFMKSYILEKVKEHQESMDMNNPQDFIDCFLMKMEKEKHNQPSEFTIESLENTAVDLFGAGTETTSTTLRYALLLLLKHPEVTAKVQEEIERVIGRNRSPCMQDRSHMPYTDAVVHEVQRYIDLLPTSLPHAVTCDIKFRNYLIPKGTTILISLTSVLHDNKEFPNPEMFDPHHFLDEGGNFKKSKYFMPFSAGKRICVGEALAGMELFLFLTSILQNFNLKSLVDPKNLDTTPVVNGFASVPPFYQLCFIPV

Assays:
In vivo pharmacokinetics = assay: In vivo pharmacokinetics; parameters: species or system female BALB/c mice; conditions: female, BALB/c, plasma; Mouse, intravenous 2.0 mg/kg; read-out: Plasma Vss
Procedure: Single dose intravenous (IV) pharmacokinetic (PK) studies in male Sprague Dawley rats and IV and oral PK studies in female BALB/c mice were conducted at Monash University. DNDI-6174 was administered by IV infusion (n=3 rats) over 10 min via a cannula implanted in the jugular vein on the day prior to dosing at a dose of 3 mg/kg prepared in 0.9% saline containing 5% DMSO and 2% Solutol HS-15 (1 mL dose volume). Blood was sampled via a cannula implanted in the carotid artery (also on the day prior to dosing) at pre-determined time points up to 24 h post-dose. Samples were transferred to vials containing heparin as an anticoagulant, gently mixed and centrifuged, and plasma separated for subsequent quantitative analysis using LC-MS. […] Mouse blood was sampled via submandibular bleed up to 24 h post-dose (n=2 mice per time point, n=3 samples per mouse) into vials containing heparin and plasma was separated for quantitative analysis as described above. […]
Single dose pharmacokinetic parameters (clearance, volume of distribution and half-life) were initially estimated using non-compartmental methods and oral bioavailability was calculated using the ratio of the dose corrected AUC after oral dosing relative to that after IV administration. Nominal doses were used in the calculations unless the measured dose differed by more than 15% from the nominal dose, in which case the measured dose was used. […]

[1] = Compartmental PK modelling and repeat-dose simulation; conditions: mice, simulated; for AUC: read-out: AUC24 ss
Procedure: To support pharmacokinetic/pharmacodynamic (PKPD) analysis, data in mice and hamsters were also analyzed by compartmental modeling using Phoenix WinNonlin (version 8.2; Certara, Princeton, NJ). For each dose level, an extravascular dosing, single compartment disposition model was fit to the combined Day 1/Day 5 repeat dose plasma data. The model was parameterized with a single volume term (V/F), and with first order absorption (K01) and elimination (K10) rate constants. Initial values for the parameter estimates were obtained by fitting of the model to the Day 1 data at the lowest dose level only, and the same initial values were used across the dose range. Experimental data used in model fitting were the mean concentration-time profiles and the average dose administered to each group. The weighting scheme (1/Y2 for mouse and 1/Y for hamster) was selected based on goodness of fit of the peak region of the experimental profiles. Parameter estimates obtained through fitting were used to simulate full repeat-dose plasma concentration-time profiles with both once-daily and twice-daily (dosing at […]) administration at each dose level and treatment duration used in the efficacy studies.

CYP2C9 = target: T1, CYP2C9 (Homo sapiens, UniProt P11712); assay: Cytochrome P450 inhibition, human liver microsomes; assay type: in vitro ADME; conditions: with NADPH preincubation; read-out: Time-dependent inhibition IC50
T1 construct: incubation of isoform-specific substrates with human liver microsomes; from tissue; host or cells: human liver microsomes
Procedure: Direct CYP inhibition studies were conducted using conditions described previously ([43]) following incubation of isoform-specific substrates with human liver microsomes. The formation of known metabolites mediated by a specific CYP isoform was monitored. CYP isoform-specific pathways (and positive control inhibitors) included CYP1A2: phenacetin O-deethylation (furafylline), CYP2B6: bupropion hydroxylation (PPP), CYP2C8: amodiaquine deethylation (quercetin) CYP2C9: tolbutamide methylhydroxylation (sulfaphenazole), CYP2C19: (S)-mephenytoin 4’-hydroxylation (ticlopidine), CYP2D6: dextromethorphan O-demethylation (quinidine), and CYP3A: midazolam 1’-hydroxylation and testosterone 6β-hydroxylation (ketoconazole). Briefly, DNDI-6174 (or positive control inhibitor) was incubated (37°C) at varying concentrations (up to 20 μM) in a 96-well plate with human liver microsomes suspended in buffer with addition of each substrate. The organic solvent content was maintained at less than 1% (v/v). […] Concentrations of the isoform-specific metabolites were quantified by LC-MS (Waters Xevo TQD triple quadrupole MS coupled to a Waters Acquity UPLC system) relative to calibration standards prepared in pre-quenched microsomal matrix. […]
Time dependent inhibition was assessed using an “IC50 shift” method based on a previous publication ([44]). […]

[2] = mouse, plasma, po, 6.25 mg/kg, 6.25 mg/kg bid, 5 days
[3] = mouse, plasma, po, 6.25 mg/kg, 6.25 mg/kg bid, 10 days

Cc1[nH]c2nc(N)nc(C)c2c1-c1ccc(C#N)c2c1OCO2 [DNDI-6174]
Vd (In vivo pharmacokinetics): 1.12 L/kg | AUC24 ss ([1]; 6.25 mg/kg bid, 5 days): 26100 ng·h/mL | AUC24 ss (unbound) ([1]; 6.25 mg/kg bid, 5 days): 3130 ng·h/mL | Cav ss ([1]; 6.25 mg/kg bid, 5 days): 1090 ng/mL | Cav ss (unbound) ([1]; 6.25 mg/kg bid, 5 days): 130 ng/mL | Cmax ([1]; 6.25 mg/kg bid, 5 days): 2330 ng/mL | Cmax (unbound) ([1]; 6.25 mg/kg bid, 5 days): 279 ng/mL | Cmin ([1]; 6.25 mg/kg bid, 5 days): 102 ng/mL | Cmin (unbound) ([1]; 6.25 mg/kg bid, 5 days): 12 ng/mL | Cum AUC ([1]; 6.25 mg/kg bid, 5 days): 131000 ng·h/mL | Cum AUC (unbound) ([1]; 6.25 mg/kg bid, 5 days): 15700 ng·h/mL | AUC24 ss (unbound) ([1]; 6.25 mg/kg bid, 10 days): 3130 ng·h/mL | Cav ss ([1]; 6.25 mg/kg bid, 10 days): 1090 ng/mL | Cav ss (unbound) ([1]; 6.25 mg/kg bid, 10 days): 130 ng/mL | Cmax (unbound) ([1]; 6.25 mg/kg bid, 10 days): 279 ng/mL | Cmin ([1]; 6.25 mg/kg bid, 10 days): 102 ng/mL | Cmin (unbound) ([1]; 6.25 mg/kg bid, 10 days): 12 ng/mL | Cum AUC (unbound) ([1]; 6.25 mg/kg bid, 10 days): 31300 ng·h/mL | AUC24 ss ([1]; 25 mg/kg bid, 5 days): 131000 ng·h/mL | Cmax at 5 days [1, 2]: 2330 ng/mL | AUC [1, 2]: 26100 ng·h/mL | AUC at 5 days ([1]; mouse, plasma, po, 6.25 mg/kg, 6.25 mg/kg bid, 5 days, read-out: Cum AUC): 131000 ng·h/mL | Cmax at 10 days [1, 3]: 2330 ng/mL | AUC [1, 3]: 26100 ng·h/mL | AUC at 10 days ([1]; mouse, plasma, po, 6.25 mg/kg, 6.25 mg/kg bid, 10 days, read-out: Cum AUC): 261000 ng·h/mL | AUC ([1]; mouse, plasma, po, 25 mg/kg, 25 mg/kg bid, 5 days): 131000 ng·h/mL | IC50 (CYP2C9): 16.4 µM
